Screens (PubChem)
Vif imaging = HIV Vif self-association inhibitors, primary screen, imaging, HEK293T, single point; inhibition, % at 7.49 µM; hit rate 0.35% among 340,000; HEK293T cells, Vif self-association by quenched fluorescence, 24 h; in the data active means inhibition above about 50%, passing the limit was not always enough
CAL PDZ FP-1 = CAL PDZ peptide-binding inhibitors, primary screen, biochemical, fluorescence polarization, Cer-tagged CAL PDZ, HTS; Golgi-associated PDZ and coiled-coil motif-containing protein (Homo sapiens), Q9HD26; purified CAL PDZ, TMR-peptide fluorescence polarization, 1 h; inhibition, % at 20 µM; hit rate 0.02% among 330,000;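 active means highest replicate inhibition of at least 40%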
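material = purified tagged CAL PDZ domain construct (CerCALP) | compound dosing = 20 µM, one dose | times = 1 h at RT | measured by = fluorescence polarization from S- and P-plane intensities, G-factor corrected | read-out = inhibition from polarization loss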
ARNT TACC3 PPI = disruptors of ARNT/TACC3 protein interaction, primary screen, biochemical, AlphaScreen, single concentration. AlphaScreen His-ARNT PAS-B/GST-TACC3 binding, luminescence; TACC3 fragment carries E629A point mutation. inhibition, % at 9.99 µM. hit rate 0.66% among 390,000;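 active means mean inhibition of replicates at least 50% and at least half of replicates each reaching 50%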
CAL PDZ FP-2 = untagged CAL PDZ binding inhibitors, primary screen, biochemical, fluorescence polarization, HTS; inhibition, % at 24.9 µM; Golgi-associated PDZ and coiled-coil motif-containing protein (Homo sapiens), Q9HD26; AID 602252, 2012; purified CAL PDZ, TMR-peptide fluorescence polarization, 1 h; hit rate 0.92% among 300,000;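 active means mean inhibition of at least 30% with at least half of replicates also reaching 30%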
PglD inh = C. jejuni PglD acetyltransferase inhibitors, primary screen, biochemical, DTNB colorimetric, single point | purified PglD enzyme, DTNB colorimetric CoA detection | inhibition, % at 12.5 µM | hit rate 0.098% among 360,000 | AID 602405, 2012; in the data active means inhibition above about 16%, passing the limit was not always enough
Yeast UUG start-1 = yeast start codon fidelity modulation | S. cerevisiae UUG-firefly luciferase reporter, luminescence/redox ratio | activity score, % at 18.7 µM | hit rate 0.13% among 350,000 | AID 602363;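 active means replicate mean at a twofold rise or more, about +100% in these data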;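 further: firefly luciferase made from a UUG start codon reports start codon fidelity; reporter light over untreated wells divided by growth signal over untreated wells; some hits fall short of that in this replicate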
Yeast UUG start-2 = enhancers of UUG start codon usage in yeast, dose response, S. cerevisiae, UUG firefly luciferase, cherry-pick, set 2. shares compounds with Yeast UUG start-1. activation, % at 38 µM. 540 tested, under 10 active. luminescence, 4 h; 100% means double the DMSO signal. AID 652061, 2013;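 active means signal increase whose fitted curve reaches an absolute level of 40 at a concentration under 10 µM; inactive means activity opposite to the expected increase, or the rest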
Hits are given with their value; . = inactive; / = no result given; ! = repeats disagree. Sampled rows, rich in hits. Any-hit rate of the full collection: about 1.6%.

SMILES	Vif imaging	CAL PDZ FP-1	ARNT TACC3 PPI	CAL PDZ FP-2	PglD inh	Yeast UUG start-1	Yeast UUG start-2
CCCC#Cc1ccc2c(c1)O[C@H](CN(C)Cc1cncnc1)[C@@H](C)CN([C@@H](C)CO)S2(=O)=O	/	/	.	/	.	80	.
CCCC#Cc1ccc2c(c1)O[C@@H](CN(C)Cc1cncnc1)[C@@H](C)CN([C@H](C)CO)S2(=O)=O	/	/	.	/	.	.	/
Cc1ccc(-c2ccc3c(c2)O[C@@H](CN(C)C(=O)Nc2ccccc2)[C@H](C)CN([C@@H](C)CO)S3(=O)=O)cc1	/	/	.	/	.	.	/
CN(C)C(=O)C[C@@H]1CC[C@H](NC(=O)C2CCC2)[C@@H](CO)O1	/	/	.	/	.	.	/
C[C@H](CO)N1C[C@H](C)[C@H](CN(C)Cc2ccc(C(F)(F)F)cc2)Oc2ccc(NC(=O)NC3CCCCC3)cc2C1=O	/	/	.	/	.	.	/
C[C@H](CO)N1C[C@H](C)[C@H](CN(C)Cc2ccccn2)Oc2cc(-c3cncnc3)ccc2S1(=O)=O	/	/	.	/	.	124	.
C[C@H]1CN([C@@H](C)CO)S(=O)(=O)c2ccc(C#Cc3ccncc3)cc2O[C@@H]1CN(C)S(=O)(=O)c1ccccc1	/	/	.	/	.	126	.
C[C@H]1CN([C@@H](C)CO)S(=O)(=O)c2ccc(-c3cncnc3)cc2O[C@@H]1CN(C)Cc1ccccn1	/	/	.	/	.	.	/
CCCC#Cc1ccc2c(c1)O[C@@H](CN(C)C(=O)CN(C)C)[C@H](C)CN([C@H](C)CO)S2(=O)=O	/	/	.	/	.	150	.
Cc1ccc(-c2ccc3c(c2)O[C@@H](CN(C)Cc2cncnc2)[C@H](C)CN([C@H](C)CO)S3(=O)=O)cc1	/	/	.	/	.	.	/
Cc1ccc(-c2ccc3c(c2)O[C@@H](CN(C)Cc2cncnc2)[C@@H](C)CN([C@H](C)CO)S3(=O)=O)cc1	/	/	/	/	.	135	.
Cc1noc(C)c1S(=O)(=O)Nc1ccc2c(c1)CC(=O)N([C@@H](C)CO)C[C@@H](C)[C@@H](CN(C)CC1CCCCC1)O2	/	/	/	/	.	.	/
C[C@H](CO)N1C[C@H](C)[C@@H](CN(C)C(=O)C2CC2)Oc2cc(-c3cncnc3)ccc2S1(=O)=O	/	/	/	/	/	.	/
O=C(C[C@H]1C[C@H]2c3cc(NC(=O)Nc4ccccc4F)ccc3O[C@H]2[C@@H](CO)O1)NCC1CC1	/	/	.	/	.	.	/
COc1ccccc1NC(=O)N(C)C[C@H]1Oc2cc(Br)ccc2S(=O)(=O)N([C@@H](C)CO)C[C@@H]1C	/	/	.	/	.	162	.
C[C@H]1CN([C@@H](C)CO)S(=O)(=O)c2ccc(-c3cncnc3)cc2O[C@@H]1CN(C)C(=O)C1CCCCC1	/	/	.	/	.	254	.
C/C=C/c1ccc2c(c1)O[C@H](CN(C)CCC)[C@H](C)CN([C@H](C)CO)S2(=O)=O	/	/	.	/	.	75	.
C/C=C/c1ccc2c(c1)O[C@@H](CN(C)CCC)[C@@H](C)CN([C@@H](C)CO)S2(=O)=O	/	/	.	/	.	.	/
C[C@H](CO)N1C[C@H](C)[C@H](CN(C)C(=O)C2CCCCC2)Oc2cc(-c3cncnc3)ccc2S1(=O)=O	/	/	.	/	.	.	/
COc1ccccc1NC(=O)N(C)C[C@H]1Oc2cc(Br)ccc2S(=O)(=O)N([C@H](C)CO)C[C@H]1C	.	/	.	/	.	.	/
CNC[C@H]1Oc2cc(C#Cc3ccccc3F)ccc2S(=O)(=O)N([C@H](C)CO)C[C@@H]1C	/	/	.	/	.	137	.
COc1ccc(NC(=O)Nc2ccc3c(c2)C(=O)N([C@H](C)CO)C[C@H](C)[C@H](CN(C)S(=O)(=O)c2cn(C)cn2)O3)cc1	/	/	.	/	.	.	/
CSc1ccc(/C=C(\C#N)C(=O)NC2CCCCC2C)cc1 (stereo not drawn)	.	.	.	.	/	/	/
CC1CCCCC1NC(=O)/C(C#N)=C/c1ccccc1F (stereo not drawn)	.	.	/	.	.	222	.
O=S(=O)(Nc1cccc(-c2cn3cccnc3n2)c1)c1ccc(-c2ccccc2)cc1	.	.	.	/	.	545	.
SMILES	Vif imaging	CAL PDZ FP-1	ARNT TACC3 PPI	CAL PDZ FP-2	PglD inh	Yeast UUG start-1	Yeast UUG start-2
C=CCN(Cc1ccccc1)C(=O)[C@H]1N(Cc2ccc(OC)cc2)C(=O)[C@@H]2[C@@H](C(=O)O)C3C=CC21O3 (stereo partly drawn)	/	/	.	/	.	.	/
COc1ccc(CN2C(=O)[C@@H]3[C@H]4C(=O)O[C@H](c5ccccc5)[C@@H](C)N(C)C(=O)CC/C=C/[C@H]4O[C@@]34C=CCN(Cc3ccccc3)C(=O)[C@@H]24)cc1	/	/	.	/	.	12!	.
Cc1nc(N2CCN(S(=O)(=O)c3ccccc3C#N)CC2)c2c(-c3ccccc3)csc2n1	.	.	.	.	.	141	.
CN(C)CCCNC(=O)C[C@@H]1CC[C@@H]2[C@@H](COc3ccc(NC(=O)c4cccc(F)c4)cc3C(=O)N2C)O1	/	/	.	/	.	.	/
COc1ccc(Cl)cc1NC(=O)CSc1nc2[nH]ncc2c(=O)[nH]1	.	/	/	/	.	109	.
CC(C)C[C@@H](CNCC(=O)[C@H](Cc1ccccc1)NC(=O)c1[nH]cnc1C(=O)N[C@@H](C)CN)NC(=O)c1nc[nH]c1C(=O)N[C@@H](C)C(=O)O	.	.	.	.	.	130	.
CC(C)C[C@@H](CNCC(=O)[C@H](C)NC(=O)c1[nH]cnc1C(=O)N[C@@H](C)CN)NC(=O)c1nc[nH]c1C(=O)N[C@@H](C)C(=O)O	.	.	.	.	.	147	.
CC(C)C[C@@H](CNCC(=O)[C@H](C)NC(=O)c1[nH]cnc1C(=O)N[C@@H](C)CN)NC(=O)c1nc[nH]c1C(=O)N[C@@H](CO)C(=O)O	/	.	.	.	.	.	/
COc1ccc(S(=O)(=O)N(C)C[C@@H]2Oc3ccc(NC(=O)Cc4ccccc4)cc3C(=O)N([C@H](C)CO)C[C@@H]2C)cc1	/	/	.	/	.	.	/
CC(C)NC(=O)Nc1ccc2c(c1)C(=O)N([C@H](C)CO)C[C@@H](C)[C@@H](CN(C)Cc1ccc3c(c1)OCO3)O2	/	/	.	/	.	.	/
O=C(C[C@@H]1C[C@H]2c3cc(NC(=O)NC4CCCCC4)ccc3O[C@H]2[C@H](CO)O1)NCc1ccccn1	/	/	.	/	.	75	.
